# Measured affinities in a library of Ab-95 light chain variants

Antigen: PDVDLGDISGINAS, a 14-residue peptide of the SARS-CoV-2 spike HR2 region.

Parent scFv Ab-95: VH joined to VL by a (GGGGS)3 linker. Changes lie in the light chain CDRs alone.
VH: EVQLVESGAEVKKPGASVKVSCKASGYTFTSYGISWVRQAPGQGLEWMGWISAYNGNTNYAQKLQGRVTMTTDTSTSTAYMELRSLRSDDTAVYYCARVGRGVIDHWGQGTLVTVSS
VL: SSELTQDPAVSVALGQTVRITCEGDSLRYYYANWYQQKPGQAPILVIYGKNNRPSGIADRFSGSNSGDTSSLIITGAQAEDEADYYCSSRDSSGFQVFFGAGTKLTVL

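In library AAYL52, one, two or three CDR residues were substituted; doubles and triples were drawn at random. The scFvs were displayed on barcoded MATa yeast, the peptide on MATalpha yeast. Pairs that bind mate more often; barcode pairs of the diploids are counted by sequencing. Each replicate has its own calibration line, from reference interactions of the BCL2 family. Each pool was mated in three replicate cultures.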

Substitutions are numbered in sequence along the VL above, starting at 1 (not Kabat).
Scale: log10 of Kd in nM, estimated from mating counts; low values are strong binders.
A pair that was not seen in that replicate is written "ND"; this usually means weak binding, but a binder can also be missed.

changes,"replicates, log10 nM",signal with controls
S26P R28T K50A,3.06 / 3.63 / 4.42,4 of 9 (4.44)
L27V N51D P54S,4.14 / 3.79 / 3.65,2 of 9 (3.58)
S89N F98W,2.29 / 2.41 / 1.69,5 of 9 (3.71)
Y31I N52I,2.81 / 4.70 / ND,1 of 9 (5.05)
S55E S92Y,1.82 / 1.85 / 1.49,3 of 9 (4.14)
Y30M S55D V97P,2.11 / 1.68 / 1.49,3 of 9 (3.71)
Y30T N51Y S55I,2.62 / ND / 4.16,2 of 9 (3.55)
S26F Y31G G49R,3.59 / 5.01 / ND,5 of 9 (4.24)
L27A Y29Q K50Q,2.89 / 2.78 / 2.60,2 of 9 (4.54)
G49M K50F Q96F,ND / 4.07 / ND,2 of 9 (3.48)
S26D Y29H Q96L,2.41 / 2.43 / 2.27,2 of 9 (3.11)
D25K N33W G94F,ND / ND / ND,1 of 9 (3.12)
R28W Y31C G49A,ND / 3.88 / 3.86,3 of 9 (3.30)
S93W G94T Q96A,ND / ND / ND,3 of 9 (3.07)
L27R K50D R53Y,3.06 / ND / 3.51,2 of 9 (3.59)
Y29N R53L S55G,2.66 / 2.51 / 2.49,3 of 9 (3.26)
D25L Y29K Y31G,2.64 / 2.73 / 2.43,7 of 9 (4.39)
A32R N33I F98Q,ND / 3.51 / ND,1 of 9 (3.77)
A32G S55Q G94D,3.70 / 3.85 / 3.25,3 of 9 (3.65)
S55P R90W Q96N,2.83 / 4.39 / ND,4 of 9 (3.55)
S26D D91Q V97S,4.25 / 3.86 / ND,3 of 9 (4.49)
R28Y K50E D91C,3.84 / ND / ND,3 of 9 (3.69)
S26H P54D S93R,ND / ND / ND,3 of 9 (4.43)
A32D S93K,ND / ND / ND,1 of 9 (3.45)
G24M L27F Y30R,2.81 / 3.02 / 2.64,2 of 9 (4.10)
D25L Y29R,1.79 / 1.78 / 1.25,2 of 9 (3.86)
S26A S55W D91M,ND / 4.31 / ND,0 of 9
E23W S55F S92A,3.50 / 3.58 / 3.56,4 of 9 (4.41)
K50N V97L,2.25 / 2.29 / 1.85,3 of 9 (3.67)
G24T S93M G94T,ND / ND / ND,4 of 9 (3.46)
Y31N D91Y F95L,ND / ND / 3.41,1 of 9 (3.37)
L27I S88P Q96C,ND / 5.32 / 4.48,1 of 9 (3.65)
D25G L27R N33G,2.81 / 2.82 / 2.45,3 of 9 (4.06)
N51H S89D V97H,4.22 / 2.21 / ND,0 of 9
R53G P54R S92E,3.21 / 3.87 / ND,3 of 9 (3.98)
Y29R F95P F98K,4.42 / ND / ND,1 of 9 (4.00)
L27V S55L G94M,3.32 / ND / ND,1 of 9 (5.09)
D25S L27F V97W,4.14 / 4.34 / 3.13,2 of 9 (4.24)
L27S Y29I S93P,4.12 / 4.06 / 4.10,3 of 9 (4.64)
S26G,2.75 / 3.19 / ND,1 of 9 (3.83)
R28I F98W,2.53 / 2.90 / 3.02,0 of 9
Y31H P54F Q96S,3.10 / 3.24 / 2.53,2 of 9 (4.41)
S26V F95K,ND / ND / ND,0 of 9

The last 7 entries again:

changes,"replicates, log10 nM",signal with controls
L27V S55L G94M,3.32 / ND / ND,1 of 9 (5.09)
D25S L27F V97W,4.14 / 4.34 / 3.13,2 of 9 (4.24)
L27S Y29I S93P,4.12 / 4.06 / 4.10,3 of 9 (4.64)
S26G,2.75 / 3.19 / ND,1 of 9 (3.83)
R28I F98W,2.53 / 2.90 / 3.02,0 of 9
Y31H P54F Q96S,3.10 / 3.24 / 2.53,2 of 9 (4.41)
S26V F95K,ND / ND / ND,0 of 9

Nonspecific signal, from three strains lacking the peptide, appeared in 28% of pairings of library AAYL52, centred on 3.91 (5% of these signals below 2.90); values are not corrected for it. Also given: how often the same scFv was detected with the empty control strains, with their mean in brackets.
In this assay the parent's reference entry averaged 2.31; its copy inside this library read 2.25.

Reference: Engelhart et al. 2022, doi:10.1038/s41597-022-01779-4. File: FLAb, binding data.